The record followed here is patent publication US20050249702A1, “(1R,2S,5S)-N-[(1S)-3-amino-1-(cyclobutylmethyl)-2,3-dioxopropyl]-3-[(2S)-2-[[[(1,1-dimethylethyl)amino]carbonyl]amino]-3,3-dimethyl-1-oxobutyl]-6,6-dimethyl-3-azabicyclo[3.1.0]hexane-2-carboxamide as inhibitor of hepatitis C virus NS3/NS4a serine protease” (SCHERING CORPORATION, priority 2004, published 2005).

Protein sequences, listed by entry. Tags and fused reporters are not part of them. Residues count along the entry.
UniProt P27958, 1027-1657: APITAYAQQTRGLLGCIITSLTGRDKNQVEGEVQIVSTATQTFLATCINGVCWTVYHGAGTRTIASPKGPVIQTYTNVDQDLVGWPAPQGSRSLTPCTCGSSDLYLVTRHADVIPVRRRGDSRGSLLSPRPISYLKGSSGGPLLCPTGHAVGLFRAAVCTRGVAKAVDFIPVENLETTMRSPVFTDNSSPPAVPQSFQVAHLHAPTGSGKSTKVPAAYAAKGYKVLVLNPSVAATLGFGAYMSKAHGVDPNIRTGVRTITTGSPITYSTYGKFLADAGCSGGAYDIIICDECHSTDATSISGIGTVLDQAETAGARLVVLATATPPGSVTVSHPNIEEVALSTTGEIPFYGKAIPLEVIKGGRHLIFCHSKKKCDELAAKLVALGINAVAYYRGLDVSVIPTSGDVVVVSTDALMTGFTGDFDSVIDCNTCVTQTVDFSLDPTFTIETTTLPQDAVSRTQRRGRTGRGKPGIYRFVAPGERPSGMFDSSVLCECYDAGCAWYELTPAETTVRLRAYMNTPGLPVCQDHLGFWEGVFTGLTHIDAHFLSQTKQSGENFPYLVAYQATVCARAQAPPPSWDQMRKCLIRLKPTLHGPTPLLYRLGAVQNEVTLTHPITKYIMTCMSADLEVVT
UniProt P27958, 1658-1711: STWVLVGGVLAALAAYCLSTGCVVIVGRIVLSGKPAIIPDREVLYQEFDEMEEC

This assay addresses Recombinant heterodimeric HCV NS3/NS4A protease (strain 1a) (Hepatitis C virus genotype 1a, UniProt P27958). The assay is described as follows: Spectrophotometric assay for HCV protease inhibitory activity (chromogenic ester substrates). Type of assay: biochemical. Conditions: 30° C., pH 6.5 assay buffer; read-out: Ki* (NS3 Serine Protease Inhibition).

With `CC(C)(C)NC(=O)N[C@H](C(=O)N1C[C@H]2[C@@H]([C@H]1C(=O)N[C@H](CC1CCC1)C(=O)C(N)=O)C2(C)C)C(C)(C)C` [Formula 2], the Ki amounted to 3000 nM. In the case of `CC(C)(C)NC(=O)N[C@H](C(=O)N1C[C@H]2[C@@H]([C@H]1C(=O)N[C@@H](CC1CCC1)C(=O)C(N)=O)C2(C)C)C(C)(C)C` [Formula 3, (1R,2S,5S)-N-[(1S)-3-amino-1-(cyclobutylmethyl)-2,3-dioxopropyl]-3-[(2S)-2-[[[(1,1-dimethylethyl)amino]carbonyl]amino]-3,3-dimethyl-1-oxobutyl]-6,6-dimethyl-3-azabicyclo[3.1.0]hexane-2-carboxamide] it was 23 ± 5 nM.

For orientation: Ki means a measure of affinity in units of concentration, obtained from inhibition or displacement.
